Data taken from PubChem BioAssay AID662 (National Center for Advancing Translational Sciences (NCATS), 2007).
This is a selection; strong and weak results do not stand in their true shares. Inconclusive results are not listed. Activity calls are given as the source filed them. The call rests on the fitted dose curve; in most records, active means well fitted activation curve with a large enough effect in the signal ratio, with a control signal flat (not every such curve was filed as active); inconclusive means small, poorly fitted or top-dose-only effect, or effect the other way, or a change in a side signal; inactive means flat fitted curve, though single readings scatter; the % refers to the signal ratio.

Test: Cell signaling CRE-BLA (Fsk stim); further: % of control where 0% means no effect
Details: CHO CRE-bla reporter (cAMP response element driving beta-lactamase), forskolin EC10, beta-lactamase ratio; at 38.2 µM (top of the series)
Excerpt: NIH Molecular Libraries Screening Centers Network [MLSCN]
NIH Chemical Genomics Center [NCGC]
Assay Provider: Marshall W. Nirenberg, U.S. National heart lung & blood institute
Memories persist for different lengths of time, from seconds or minutes to a lifetime. There are two kinds of memory: short-term memory (STM) and long-term memory (LTM). STM lasts for minutes to hours, which maybe mediated by modifications of molecules involved in synaptic functions. LTM lasts for days or longer, and may be due to the formation of new synapses or restructuring of existing synapses. LTM, but not STM, requires gene transcription and synthesis of proteins. […]
Using a beta-lactamase reporter-gene under control of cAMP responsive element, a cell-based assay [CellSensor(TM) CRE-bla CHO developed by Invitrogen Corp.] was used to measure forskolin-induced signaling. Library compounds were measured for their ability to modulate positively or negatively the action of EC10 NKH 477, a water soluble forskolin, on reporter gene activity. […]
2000 cells/5uL in Opti-MEM medium containing 0.5% dialyzed FBS, 0.1 mM NEAA, 1 mM sodium pyruvate and 10 mM HEPES was dispensed into 1536-well plates and cells were cultured at 37 degrees Celsius overnight. […] After incubated at room temperature for 2 hours the plates were measured on an EnVision plate reader at Excitation 405nm, Emission1=460nm and Emission 2=530nm. […]

| Compound | activity change, negative = inhibition |
| --- | --- |
| O=[N+]([O-])C(Cl)(Cl)Cl | inactive: -1.73% |
